scFv variants of Ab-14 (light chain) against a SARS-CoV-2 spike peptide

From the AlphaSeq antibody data of Engelhart et al. 2022 (doi:10.1038/s41597-022-01779-4), copy in the FLAb collection.

Target: peptide PDVDLGDISGINAS, taken from heptad repeat 2 (HR2) of SARS-CoV-2 spike.

Parent scFv Ab-14: VH joined to VL by a (GGGGS)3 linker. Changes lie in the light chain CDRs alone.
VH: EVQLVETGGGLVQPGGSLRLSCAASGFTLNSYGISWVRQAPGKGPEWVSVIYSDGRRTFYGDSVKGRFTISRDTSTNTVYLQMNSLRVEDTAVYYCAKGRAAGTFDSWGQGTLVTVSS
VL: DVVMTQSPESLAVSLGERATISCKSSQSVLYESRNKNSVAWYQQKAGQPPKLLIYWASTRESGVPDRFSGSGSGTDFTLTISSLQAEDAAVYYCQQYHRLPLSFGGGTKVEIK

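The starting antibody came from a phage panning campaign against this peptide. Variants in AAYL50 differ from the parent at up to three CDR positions; double and triple changes were sampled at random. The scFvs were displayed on barcoded MATa yeast, the peptide on MATalpha yeast. The frequency of each diploid, read from paired DNA barcodes, reflects how well the two displayed proteins bind. The ratio of observed to expected reads was calibrated, replicate by replicate, on BCL2-family standards whose Kd was known from biolayer interferometry. Mating was done three times.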

Changes read parent residue, position, new residue, counted from the first residue of the VL shown.
Numbers give log10(Kd / nM), so 0 is 1 nM and 3 is 1 µM. Smaller is tighter.
Averages over replicates are reported, and they cover detected replicates only.
"not detected" means that the variant was in the library but no mating with the target was seen in any replicate; the authors take this as a sign of poor binding, and no number exists.
Empty control strains, which show no peptide, gave a signal in 18% of pairings with library AAYL50; the median was 4.19 and 95% of these signals were weaker than 2.99. No background was subtracted.

| changes | log10 Kd (nM), mean | replicates with signal |
|---|---|---|
| S33Y S38A A57K | 1.53 | 3 of 3 |
| S25P Q95H H98W | not detected | 0 of 3 |
| R60C R99I | 4.47 | 2 of 3 |
| S26M L30K Q95F | 5.09 | 1 of 3 |
| Y31W S38H P101F | not detected | 0 of 3 |
| S25N S62Y L102Y | not detected | 0 of 3 |
| V39K S62M S103G | 4.28 | 2 of 3 |
| N37L W56V L102N | not detected | 0 of 3 |
| V29H A57W L102R | not detected | 0 of 3 |
| S26V W56S T59K | 0.22 | 3 of 3 |
| S25D W56Q L100R | 4.73 | 1 of 3 |
| W56I L102G S103I | 4.38 | 2 of 3 |
| Y31K E32Y R34N | 0.93 | 3 of 3 |
| S28K E32Q E61S | not detected | 0 of 3 |
| V29T S58Q E61R | 4.28 | 3 of 3 |
| S28L H98L L102F | 1.43 | 3 of 3 |
| H98E L102C | 1.51 | 3 of 3 |
| K36P R60L P101M | 3.26 | 3 of 3 |
| K36G W56H P101E | 0.39 | 3 of 3 |
| E32R K36Q Q96F | 0.74 | 3 of 3 |
| Y31E H98G L100R | 2.62 | 1 of 3 |
| S25V V39D L102P | not detected | 0 of 3 |
| A57D R60K | 1.48 | 3 of 3 |
| S25M R60L L102I | 0.89 | 3 of 3 |
| V29E N35T W56E | -0.17 | 3 of 3 |
| S58D T59C S62I | 1.42 | 3 of 3 |
| N35W Y97S L100K | 4.47 | 1 of 3 |
| K24F S25K A40V | not detected | 0 of 3 |
| S25N Q27V K36I | 1.81 | 3 of 3 |
| N35H Q95N H98N | 1.76 | 3 of 3 |
| S26L S28T S103N | 2.53 | 2 of 3 |
| A57T Y97L L100K | 2.34 | 3 of 3 |

Further variants, results first:

| log10 Kd (nM), mean | replicates with signal | changes |
|---|---|---|
| 4.85 | 1 of 3 | V29F Y31H P101V |
| 1.03 | 3 of 3 | S26K L30A |
| 1.75 | 3 of 3 | S26V Q27Y H98D |
| 1.09 | 3 of 3 | L30W Q95A S103H |
| 0.67 | 3 of 3 | Y31N S38P |
| 3.41 | 1 of 3 | S26R N35M S38R |
| not detected | 0 of 3 | W56L Q96P |
| not detected | 0 of 3 | Y31Q E32S V39K |
| 4.38 | 1 of 3 | A57K T59L R99D |
| 3.16 | 3 of 3 | K24L L30S S58R |
| 2.68 | 1 of 3 | V29G L30V R34M |
| 4.66 | 1 of 3 | E32T S58K T59G |
| 2.00 | 3 of 3 | S26Y K36Y Q95A |
| 0.84 | 3 of 3 | Y31I N37S R99D |
| 0.98 | 3 of 3 | S28N Y31M S58G |
| not detected | 0 of 3 | S58M L102G |
| not detected | 0 of 3 | S58F S62G Q95W |
| 2.87 | 2 of 3 | K24E K36F E61W |
| 0.88 | 3 of 3 | L30Q N35A S62H |
| not detected | 0 of 3 | V39L A40M L100F |
| not detected | 0 of 3 | S33W W56E L100E |
| not detected | 0 of 3 | E32I L100C S103F |
| 0.59 | 3 of 3 | S33D V39I E61S |
| 2.18 | 3 of 3 | S33M R34T S103H |
| not detected | 0 of 3 | S33E A40N T59Q |
| not detected | 0 of 3 | L30T E32W Q95R |
| -0.18 | 3 of 3 | V29P W56A E61V |
| 4.13 | 1 of 3 | R34G V39A L100N |
| not detected | 0 of 3 | K24L Q27Y V39H |
| not detected | 0 of 3 | K24N S28A A40I |
| 3.45 | 3 of 3 | Q27Y R34S Q95C |
| 1.33 | 3 of 3 | L30P S58Q H98G |

Excerpt, the first 5 entries:

changes,"log10 Kd (nM), mean",replicates with signal
S33Y S38A A57K,1.53,3 of 3
S25P Q95H H98W,not detected,0 of 3
R60C R99I,4.47,2 of 3
S26M L30K Q95F,5.09,1 of 3
Y31W S38H P101F,not detected,0 of 3

For reference, the parent read 0.65 as the reference entry and 1.68 as a member of this library.